SMILES strings stand for the structures. The list shows a part of the results, in another mix than the full data. Calls of active or inactive are those of the source.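 How the source made its calls: active means inhibition above the screen-wide mean inhibition plus 3 SD (cut at about 15% in these data); inactive means the rest.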

Chains of the proteins cited; added tags and fusions are not shown. Lines headed by an entry give the natural chain unless they say otherwise; changes in a name come on top.
UniProt P54760: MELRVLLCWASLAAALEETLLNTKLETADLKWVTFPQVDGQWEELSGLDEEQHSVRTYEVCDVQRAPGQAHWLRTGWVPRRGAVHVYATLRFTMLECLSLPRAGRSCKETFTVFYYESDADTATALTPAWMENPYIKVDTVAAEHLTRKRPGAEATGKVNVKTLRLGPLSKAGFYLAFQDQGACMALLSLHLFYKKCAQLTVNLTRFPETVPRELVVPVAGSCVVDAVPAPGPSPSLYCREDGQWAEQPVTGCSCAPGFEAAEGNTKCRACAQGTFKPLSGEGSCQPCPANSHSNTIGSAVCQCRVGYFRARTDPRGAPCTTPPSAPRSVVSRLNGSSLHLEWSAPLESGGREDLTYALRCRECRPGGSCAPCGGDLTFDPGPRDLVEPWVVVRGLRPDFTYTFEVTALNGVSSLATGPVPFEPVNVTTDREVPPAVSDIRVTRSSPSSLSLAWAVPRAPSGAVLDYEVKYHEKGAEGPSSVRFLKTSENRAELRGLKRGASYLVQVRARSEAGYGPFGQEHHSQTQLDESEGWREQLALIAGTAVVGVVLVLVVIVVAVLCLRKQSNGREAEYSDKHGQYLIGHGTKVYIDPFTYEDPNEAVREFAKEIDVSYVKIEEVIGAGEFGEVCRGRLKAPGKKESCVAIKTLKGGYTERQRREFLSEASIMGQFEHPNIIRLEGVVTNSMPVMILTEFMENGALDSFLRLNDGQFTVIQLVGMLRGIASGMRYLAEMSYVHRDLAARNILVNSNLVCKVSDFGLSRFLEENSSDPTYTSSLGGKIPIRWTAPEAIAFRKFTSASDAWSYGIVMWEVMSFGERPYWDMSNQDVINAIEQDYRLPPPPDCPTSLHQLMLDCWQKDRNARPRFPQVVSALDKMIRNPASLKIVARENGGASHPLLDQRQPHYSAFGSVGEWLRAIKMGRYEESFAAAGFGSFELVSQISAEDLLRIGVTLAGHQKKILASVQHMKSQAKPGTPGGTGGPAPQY

In the experiment the target is Ephrin type-B receptor 4 (Homo sapiens) (UniProt P54760). The experiment is described as follows: blockers of EphB4 ligand binding – biochemical, TNYL-RAW peptide probe, fluorescence polarization, primary screen (AID 720).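 Further: 0% = DMSO wells and 100% = excess unlabeled TNYL-RAW peptide.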 The settings on record: EphB4 LBD / TNYL-RAW-Alexa532 peptide, at 7 µM, active compounds read high. In general terms: Fluorescence polarisation rises when a labelled molecule tumbles more slowly, as on binding a larger partner.
Take `O=C(OC1CN2CCC1CC2)c1cccc(Cl)c1` (stereo not drawn): the inhibition is inactive: -0.69%.

On to `c1nnnn1CCn1cnnn1`, for which the inhibition was inactive: -1.52%. `O=P(Nc1nccs1)(c1ccccc1)c1ccccc1`: the inhibition was inactive: -6.94%.

As to `O=P1(Nc2nc3ccc(Cl)cc3s2)COc2ccccc2O1` (stereo not drawn), the inhibition was inactive: -2.39%. The same measure for `COC(=O)c1cc2c(s1)N=C(c1ccccc1)N(C)P2(=O)N1CCOCC1` (stereo not drawn): inactive: -2.25%; for `CCC(=O)N1C2C3N(C(=O)CC)C1C1N(C(=O)CC)C(C(N1C(=O)CC)N3C(=O)CC)N2C(=O)CC`: inactive: -2.56%; for `CCOC(=O)NC(Sc1ccccc1)C(Cl)(Cl)Cl` (stereo not drawn): inactive: 7.08%. `CCOP(=O)(Nc1ccccc1)OCC`: the inhibition is inactive: 1.53%.

Consider `CC(C)CC(=O)NC(Sc1ccc(Cl)cc1)C(Cl)(Cl)Cl` (stereo not drawn), for which the inhibition was inactive: 1.54%.

`Oc1ccccc1CNc1ccccn1`: the inhibition is inactive: 1.88%. For the compound `Cc1c2non([O-])c-2c(C)[n+](=O)[n+]1[O-]`, the inhibition was inactive: 1.93%. The same measure for `CN1CCCC(OC(=O)C(c2ccccc2)c2ccccc2)C1` (stereo not drawn): inactive: -1.05%; for `CC1CCN(C(=O)Oc2c(Cl)cc(Cl)c3cccnc23)CC1`: inactive: 4.8%.

`O=[N+]([O-])c1cccc2n[nH]nc12`: the inhibition was inactive: -4.77%. For `CC(=O)N1C2C3N(C(C)=O)C1C1N(C(C)=O)C(C(N1C(C)=O)N3C(C)=O)N2C(C)=O` the value was inactive: -3.54%; for `CCc1nc2c(n1)c1c(non1O)c1c2no[n+]1[O-]`, inactive: -4.29%; for `CCC(C)N(CC(C)C)C(=S)SC(NC(C)=O)C(Cl)(Cl)Cl` (stereo not drawn), inactive: -7.43%. For `O=C(COc1ccccc1)OC1CN2CCC1CC2` (stereo not drawn), the inhibition was inactive: 9.82%.

With `COP1(=S)c2c(C)nn(CCC#N)c2N=C(c2ccc(F)cc2)N1C` (stereo not drawn), the inhibition is inactive: 4.49%. The same measure for `O=C(OC1CN2CCC1CC2)C12CC3CC(CC(C3)C1)C2` (stereo not drawn): inactive: 2.3%.

In the case of `CCN(CC)C(=S)SC(NC=O)C(Cl)(Cl)Cl` (stereo not drawn), the inhibition was inactive: -6.29%. `ClCCSc1nnc(-c2cccnc2)o1`: the inhibition is inactive: -6.64%. The same measure for `O=[N+]([O-])c1ccc2c(c1)nnn2O`: inactive: -2.76%.

Take `CCOP1(=S)c2c(C)nn(CCC#N)c2N=C(c2ccc(F)cc2)N1C` (stereo not drawn): the inhibition was inactive: 6.64%. Regarding `CCOP1(=S)c2c(C)nn(CCC#N)c2N=C(c2ccccc2F)N1C` (stereo not drawn), the inhibition is inactive: -1.81%. For `Cc1cccc(OCC(=O)OC2CN3CCC2CC3)c1` (stereo not drawn) the value was inactive: -1.59%; for `CC1(CBr)Cn2c(nc3ccccc3c2=O)S1` (stereo not drawn), inactive: -3.69%; for `Clc1n[nH]nc1-c1nn[nH][15n]1`, inactive: -3.39%.

In the case of `O=P1(Nc2ccccn2)COc2ccccc2OC1`, the inhibition is inactive: -5.24%. In the case of `O=P1(Nc2ccc(Br)cn2)COc2ccccc2OC1`, the inhibition is inactive: -0.61%. The same measure for `Cc1ccc(OCC(=O)OC2CN3CCC2CC3)cc1` (stereo not drawn): inactive: -5.77%; for `O=P1(Nc2ncccn2)COc2ccccc2OC1`: inactive: 1.45%.

For the compound `Cc1nn(-c2ccccc2)c2c1P(=O)(N1CCOCC1)N(C)C(c1ccccc1)=N2` (stereo not drawn), the inhibition is inactive: -10%.

As usually defined, the inhibition is the change of the read-out against control, counted positive when it falls.

The values above are taken from PubChem BioAssay AID720 (The Scripps Research Institute Molecular Screening Center, 2007).
